Assay results: US20140220556A1, “Method of Design and Synthesis of a New Drug” (priority 2013, published 2014)

B1: beta-interferon: biotechnological drug used in the treatment of disseminated sclerosis (protein, UniProt P01574 22-187, looked up)
Interferon beta: MSYNLLGFLQRSSNFQCQKLLWQLNGRLEYCLKDRMNFDIPEEIKQLQQFQKEDAALTIYEMLQNIFAIFRQDSSSTGWNETIVENLLANVYHQINHLKTVLEEKLEKEDFTRGKLMSSLHLKRYYGRILHYLKAKEYSHCAWTIVRVEILRNFYFINRLTGYLRN

Tests used:
CaOv cells = assay: Antiproliferative activity of IFN derivatives toward CaOv cells; format: cell-based, human; conditions: 1000 U/mL; for anti-proliferative activity: CaOv cells (high sensitivity to IFN); for increase in the index of anti-proliferation activity (IAA): CaOv cells, versus non-acylated IFN
Procedure: (§1) For the synthesis of quasi-living systems on the basis of α-2b-interferon, interferon (IFN) (Biolek, Kharkiv, Ukraine) and succinic and aconite anhydrides (Aldrich-Sigma, USA) were used. The end of the reaction was controlled through changing the molecular weight of the IFN through pulse-gel-electrophoresis in polyacrylamide gel, using non-acylated IFN as a control. […] The modified IFN were cleaned with chromatography on Sephadex G-25 and then preserved at −20° C. Their antiproliferative activity was studied on cells of the CaOv line, which is highly sensitive to interferons in vitro, and on SW-480, a cell line with a low sensitivity to the activity of IFN in vitro. The cells were cultivated in a DMEM medium (Aldrich-Sigma, USA) with the addition of 10% FCS and 50 μg/mL gentamycin (Aldrich-Sigma, USA) with a density of 10^4 cells/cm^2 in 96-well plates (Bayer) at a temperature of 37° C. in an atmosphere of 5% CO2. The cell cultures' sensitivity to IFN was evaluated by the level of slowing the cell growth after treatment with the quasi-living IFN derivatives.
The Index of Anti-proliferative Activity (IAA) of IFN (%) was calculated as a ratio between the number of cells in the experimental well and the number of cells in the control multiplied by 100. The non-specific cytotoxic effect was determined through dyeing the cells with trypan blue incubation after a 24-hour incubation of the cells with IFN derivatives. […] The original titer of non-modified IFN was 2.5×10^3 ME/mL; IFN and its quasi-living derivatives were added to the medium at a dose of 1000 U/mL (0.05 μL/well); the acylated interferons were added in accordance with the calculation of the concentration of the protein. The cells were incubated for 72 hours with interferon. The number of cells was determined using an inverted microscope (Leica, Germany) every twelve hours.

SW-480 cells = assay: Antiproliferative activity of IFN derivatives toward SW-480 cells; format: cell-based, human
Procedure: as §1, with “The cells were cultivated in a DMEM medium (Aldrich-Sigma, USA) with the addition of 10% FCS and 50 μg/mL gentamycin (Aldrich-Sigma, USA) with a density of 10^4 cells/cm^2 in 96-well plates (Bayer) at a temperature of 37° C. in an atmosphere of 5% CO2.” left out
The Index of Anti-proliferative Activity (IAA) of IFN (%) was calculated as a ratio between the number of cells in the experimental well and the number of cells in the control multiplied by 100. The non-specific cytotoxic effect was determined through dyeing the cells with trypan blue incubation after a 24-hour incubation of the cells with IFN derivatives. […] The number of cells was determined using an inverted microscope (Leica, Germany) every twelve hours.

[1] = treatment of disseminated sclerosis, cited from earlier work

| Molecule | anti-proliferative activity (CaOv cells) | increase in the index of anti-proliferation activity (IAA) (CaOv cells) [times] | also measured |
| --- | --- | --- | --- |
| 4-substituted AIF: α-2b-interferon acylated with aconite anhydride, mole ratio 1:4 | not seen | – | – |
| 1-substituted AIF: α-2b-interferon acylated with aconite anhydride, mole ratio 1:1 | largest amount of anti-proliferative activity | 3.6 | – |
| 1-substituted SIF: α-2b-interferon acylated with succinic anhydride, mole ratio 1:1 | – | 3.2 | – |
| 3-substituted AIF: α-2b-interferon acylated with aconite anhydride, mole ratio 1:3 | – | – | anti-proliferative activity (SW-480 cells; SW-480 cells (low sensitivity to IFN), 1000 U/mL): largest amount of anti-proliferative activity; activity level higher than that of the SIF (SW-480 cells; SW-480 cells, 3-substituted AIF versus SIF): 16% |
| B1 | – | – | exceeds the placebo in effectiveness by [1]: 8%; effectiveness ([1]; placebo 30%): 38% |
